Measurements from paper PMC3638264 (Journal of Medicinal Chemistry, 2013).

Molecular target: T1, AKR1C4 (Homo sapiens, UniProt P17516)
T1 sequence (P17516 1-323): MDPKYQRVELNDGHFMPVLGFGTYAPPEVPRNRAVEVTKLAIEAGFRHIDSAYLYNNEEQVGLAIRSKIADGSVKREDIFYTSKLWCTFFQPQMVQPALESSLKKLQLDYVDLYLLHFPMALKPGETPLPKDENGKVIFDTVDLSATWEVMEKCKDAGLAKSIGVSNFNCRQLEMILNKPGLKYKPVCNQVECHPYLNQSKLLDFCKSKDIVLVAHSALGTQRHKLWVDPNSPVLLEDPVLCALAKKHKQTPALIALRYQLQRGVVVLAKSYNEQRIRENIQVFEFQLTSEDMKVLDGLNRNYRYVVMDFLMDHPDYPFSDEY
Assay type: biochemical

Structure (SMILES) | IC50 ratio AKR1C4/AKR1C3 (value in parentheses)
COc1ccc2c(c1)c(CC(=O)O)c(C)n2C(=O)c1ccc(CCl)cc1 [Compound 3] | 49.75 (415)
COc1ccc2c(c1)c(C)c(CCC(=O)NS(C)(=O)=O)n2C(=O)c1ccc(Cl)cc1 [Compound 50, 3-(1-(4-Chlorobenzoyl)-5-methoxy-3-methyl-1H-indol-2-yl)-N-(methylsulfonyl)propanamide] | 12.64 (37)
